Data as given in ChEMBL document CHEMBL4359863, “Structure-guided development of purine amide, hydroxamate, and amidoxime for the inhibition of non-small cell lung cancer” (Eur J Med Chem, 2019).

Chains of the proteins cited; added tags and fusions are not shown. Lines headed by an entry give the natural chain unless they say otherwise; changes in a name come on top.
UniProt P45983: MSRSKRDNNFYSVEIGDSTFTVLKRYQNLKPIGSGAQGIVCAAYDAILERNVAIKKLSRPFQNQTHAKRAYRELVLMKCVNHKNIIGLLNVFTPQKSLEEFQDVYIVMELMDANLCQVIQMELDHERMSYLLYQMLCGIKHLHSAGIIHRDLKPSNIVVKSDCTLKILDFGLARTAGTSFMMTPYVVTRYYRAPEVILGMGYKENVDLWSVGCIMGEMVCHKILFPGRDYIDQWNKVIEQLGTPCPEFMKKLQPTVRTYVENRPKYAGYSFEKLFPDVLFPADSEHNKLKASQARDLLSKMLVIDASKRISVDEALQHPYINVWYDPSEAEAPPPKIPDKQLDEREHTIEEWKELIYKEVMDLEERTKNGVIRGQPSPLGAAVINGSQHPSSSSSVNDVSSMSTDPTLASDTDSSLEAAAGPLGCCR
UniProt P42229: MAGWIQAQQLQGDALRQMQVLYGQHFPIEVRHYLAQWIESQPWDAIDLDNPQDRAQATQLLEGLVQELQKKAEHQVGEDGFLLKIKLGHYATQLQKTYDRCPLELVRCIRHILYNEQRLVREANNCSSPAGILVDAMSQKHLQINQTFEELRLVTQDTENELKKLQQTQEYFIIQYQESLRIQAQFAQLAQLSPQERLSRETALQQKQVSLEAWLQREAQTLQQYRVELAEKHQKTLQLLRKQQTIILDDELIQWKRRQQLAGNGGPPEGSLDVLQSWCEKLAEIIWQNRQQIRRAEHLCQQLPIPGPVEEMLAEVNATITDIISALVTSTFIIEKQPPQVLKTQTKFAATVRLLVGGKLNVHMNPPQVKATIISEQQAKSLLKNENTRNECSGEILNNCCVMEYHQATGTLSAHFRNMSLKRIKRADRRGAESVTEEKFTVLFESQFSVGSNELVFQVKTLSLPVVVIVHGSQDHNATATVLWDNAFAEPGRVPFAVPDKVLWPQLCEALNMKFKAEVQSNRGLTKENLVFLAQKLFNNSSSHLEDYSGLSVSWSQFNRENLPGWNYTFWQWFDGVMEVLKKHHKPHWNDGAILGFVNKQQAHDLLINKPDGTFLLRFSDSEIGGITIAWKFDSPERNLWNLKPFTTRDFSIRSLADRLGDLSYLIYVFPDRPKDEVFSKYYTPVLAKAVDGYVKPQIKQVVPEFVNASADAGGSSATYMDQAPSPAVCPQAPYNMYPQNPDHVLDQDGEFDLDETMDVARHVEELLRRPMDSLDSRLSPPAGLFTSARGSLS
UniProt P52630: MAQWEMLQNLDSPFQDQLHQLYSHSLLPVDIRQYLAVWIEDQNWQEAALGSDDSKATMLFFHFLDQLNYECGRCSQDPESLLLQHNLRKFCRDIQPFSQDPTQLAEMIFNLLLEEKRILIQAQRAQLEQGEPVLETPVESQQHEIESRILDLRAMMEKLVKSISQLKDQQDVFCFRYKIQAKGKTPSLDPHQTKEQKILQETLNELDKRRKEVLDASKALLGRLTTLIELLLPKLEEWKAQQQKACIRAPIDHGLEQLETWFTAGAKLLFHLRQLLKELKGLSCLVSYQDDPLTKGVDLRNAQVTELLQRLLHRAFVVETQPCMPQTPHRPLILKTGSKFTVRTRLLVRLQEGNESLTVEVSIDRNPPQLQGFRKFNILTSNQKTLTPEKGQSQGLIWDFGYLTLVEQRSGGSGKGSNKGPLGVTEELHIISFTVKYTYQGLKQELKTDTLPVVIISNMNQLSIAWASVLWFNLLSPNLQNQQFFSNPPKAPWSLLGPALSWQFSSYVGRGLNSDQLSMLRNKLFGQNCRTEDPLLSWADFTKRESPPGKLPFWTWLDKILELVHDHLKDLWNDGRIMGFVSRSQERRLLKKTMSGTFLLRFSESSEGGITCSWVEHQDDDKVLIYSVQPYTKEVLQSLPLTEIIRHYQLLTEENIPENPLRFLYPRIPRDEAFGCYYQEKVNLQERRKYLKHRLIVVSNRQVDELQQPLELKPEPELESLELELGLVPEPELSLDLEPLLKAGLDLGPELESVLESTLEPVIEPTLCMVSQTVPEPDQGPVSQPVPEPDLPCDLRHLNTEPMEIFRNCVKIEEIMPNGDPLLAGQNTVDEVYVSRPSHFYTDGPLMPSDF
UniProt P51812, whole entry, looked up: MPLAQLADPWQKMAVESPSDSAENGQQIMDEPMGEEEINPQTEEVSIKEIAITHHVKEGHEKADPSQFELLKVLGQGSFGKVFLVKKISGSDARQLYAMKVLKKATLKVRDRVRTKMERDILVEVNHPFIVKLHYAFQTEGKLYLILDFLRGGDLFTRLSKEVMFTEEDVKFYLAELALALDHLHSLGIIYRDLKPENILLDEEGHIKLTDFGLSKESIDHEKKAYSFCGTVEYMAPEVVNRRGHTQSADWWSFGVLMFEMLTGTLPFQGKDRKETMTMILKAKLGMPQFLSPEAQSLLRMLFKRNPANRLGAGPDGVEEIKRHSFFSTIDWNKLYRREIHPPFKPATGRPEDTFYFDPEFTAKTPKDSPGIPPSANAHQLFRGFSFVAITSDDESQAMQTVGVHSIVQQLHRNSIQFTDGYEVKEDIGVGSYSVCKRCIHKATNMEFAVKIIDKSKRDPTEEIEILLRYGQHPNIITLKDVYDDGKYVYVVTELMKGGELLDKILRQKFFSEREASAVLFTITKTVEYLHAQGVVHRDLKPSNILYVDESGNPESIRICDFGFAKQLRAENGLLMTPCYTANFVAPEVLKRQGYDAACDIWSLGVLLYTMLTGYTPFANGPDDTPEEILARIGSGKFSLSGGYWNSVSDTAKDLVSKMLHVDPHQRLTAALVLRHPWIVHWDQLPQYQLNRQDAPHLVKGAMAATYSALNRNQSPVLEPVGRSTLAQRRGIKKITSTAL
UniProt Q15418, whole entry, looked up: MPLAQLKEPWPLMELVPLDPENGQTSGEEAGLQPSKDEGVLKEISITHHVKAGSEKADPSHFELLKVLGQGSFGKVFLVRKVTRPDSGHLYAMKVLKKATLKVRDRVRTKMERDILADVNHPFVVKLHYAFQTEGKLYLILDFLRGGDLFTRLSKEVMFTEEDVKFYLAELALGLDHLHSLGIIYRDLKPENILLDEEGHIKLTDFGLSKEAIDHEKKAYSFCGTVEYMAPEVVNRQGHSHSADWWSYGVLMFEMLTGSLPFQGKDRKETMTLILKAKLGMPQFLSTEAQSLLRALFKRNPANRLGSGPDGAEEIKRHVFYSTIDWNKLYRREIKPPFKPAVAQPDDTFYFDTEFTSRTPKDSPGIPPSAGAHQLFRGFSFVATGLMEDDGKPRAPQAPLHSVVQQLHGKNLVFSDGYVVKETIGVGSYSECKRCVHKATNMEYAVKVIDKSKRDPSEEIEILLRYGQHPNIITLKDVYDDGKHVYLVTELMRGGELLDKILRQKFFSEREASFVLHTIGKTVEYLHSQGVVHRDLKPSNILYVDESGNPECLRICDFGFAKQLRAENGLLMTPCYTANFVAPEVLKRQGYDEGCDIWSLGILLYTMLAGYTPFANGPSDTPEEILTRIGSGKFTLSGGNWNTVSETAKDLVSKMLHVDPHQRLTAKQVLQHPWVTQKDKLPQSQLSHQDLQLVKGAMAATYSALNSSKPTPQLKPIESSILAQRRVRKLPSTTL
UniProt Q16539, whole entry: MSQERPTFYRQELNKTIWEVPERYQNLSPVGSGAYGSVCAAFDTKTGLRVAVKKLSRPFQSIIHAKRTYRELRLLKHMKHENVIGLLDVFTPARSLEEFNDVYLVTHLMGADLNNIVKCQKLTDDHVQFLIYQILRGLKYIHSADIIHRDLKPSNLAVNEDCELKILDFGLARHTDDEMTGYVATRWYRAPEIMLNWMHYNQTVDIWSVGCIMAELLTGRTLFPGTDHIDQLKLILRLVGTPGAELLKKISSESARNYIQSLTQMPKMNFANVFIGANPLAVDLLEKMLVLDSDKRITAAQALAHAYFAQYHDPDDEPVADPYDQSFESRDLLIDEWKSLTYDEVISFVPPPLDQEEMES
UniProt Q05397, whole entry, looked up: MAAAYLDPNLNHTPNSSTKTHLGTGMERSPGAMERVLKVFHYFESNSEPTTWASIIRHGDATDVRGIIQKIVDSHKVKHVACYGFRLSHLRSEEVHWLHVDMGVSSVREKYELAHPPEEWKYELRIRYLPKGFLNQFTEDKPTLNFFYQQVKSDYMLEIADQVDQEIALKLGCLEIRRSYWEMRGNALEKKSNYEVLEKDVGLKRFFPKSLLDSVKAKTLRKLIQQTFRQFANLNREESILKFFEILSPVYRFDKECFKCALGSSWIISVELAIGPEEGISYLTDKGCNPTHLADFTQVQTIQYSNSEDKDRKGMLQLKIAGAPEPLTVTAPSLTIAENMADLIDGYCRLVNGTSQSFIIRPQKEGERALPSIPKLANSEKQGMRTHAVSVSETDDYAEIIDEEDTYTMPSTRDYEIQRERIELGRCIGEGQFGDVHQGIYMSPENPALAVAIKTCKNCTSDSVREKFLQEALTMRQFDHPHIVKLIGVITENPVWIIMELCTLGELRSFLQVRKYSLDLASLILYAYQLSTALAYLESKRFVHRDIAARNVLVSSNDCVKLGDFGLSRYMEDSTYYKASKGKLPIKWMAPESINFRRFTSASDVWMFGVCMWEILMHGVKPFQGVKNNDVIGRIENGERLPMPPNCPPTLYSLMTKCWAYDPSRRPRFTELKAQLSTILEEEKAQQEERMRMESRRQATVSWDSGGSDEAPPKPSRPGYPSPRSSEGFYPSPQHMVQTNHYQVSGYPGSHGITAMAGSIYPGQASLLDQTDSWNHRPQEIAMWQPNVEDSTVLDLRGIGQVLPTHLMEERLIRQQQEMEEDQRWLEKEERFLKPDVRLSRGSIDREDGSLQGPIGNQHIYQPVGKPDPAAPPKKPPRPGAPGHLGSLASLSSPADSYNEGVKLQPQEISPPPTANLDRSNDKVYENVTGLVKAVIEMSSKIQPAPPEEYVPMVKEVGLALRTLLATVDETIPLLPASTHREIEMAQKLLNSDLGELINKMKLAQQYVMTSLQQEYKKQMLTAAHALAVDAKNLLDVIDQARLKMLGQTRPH
UniProt P46527, whole entry: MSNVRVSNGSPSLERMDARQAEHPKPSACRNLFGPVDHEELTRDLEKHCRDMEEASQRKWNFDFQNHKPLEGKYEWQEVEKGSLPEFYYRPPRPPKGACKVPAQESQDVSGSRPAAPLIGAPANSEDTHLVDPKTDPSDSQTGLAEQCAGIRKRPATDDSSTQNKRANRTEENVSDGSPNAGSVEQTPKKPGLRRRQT
UniProt P40763, whole entry: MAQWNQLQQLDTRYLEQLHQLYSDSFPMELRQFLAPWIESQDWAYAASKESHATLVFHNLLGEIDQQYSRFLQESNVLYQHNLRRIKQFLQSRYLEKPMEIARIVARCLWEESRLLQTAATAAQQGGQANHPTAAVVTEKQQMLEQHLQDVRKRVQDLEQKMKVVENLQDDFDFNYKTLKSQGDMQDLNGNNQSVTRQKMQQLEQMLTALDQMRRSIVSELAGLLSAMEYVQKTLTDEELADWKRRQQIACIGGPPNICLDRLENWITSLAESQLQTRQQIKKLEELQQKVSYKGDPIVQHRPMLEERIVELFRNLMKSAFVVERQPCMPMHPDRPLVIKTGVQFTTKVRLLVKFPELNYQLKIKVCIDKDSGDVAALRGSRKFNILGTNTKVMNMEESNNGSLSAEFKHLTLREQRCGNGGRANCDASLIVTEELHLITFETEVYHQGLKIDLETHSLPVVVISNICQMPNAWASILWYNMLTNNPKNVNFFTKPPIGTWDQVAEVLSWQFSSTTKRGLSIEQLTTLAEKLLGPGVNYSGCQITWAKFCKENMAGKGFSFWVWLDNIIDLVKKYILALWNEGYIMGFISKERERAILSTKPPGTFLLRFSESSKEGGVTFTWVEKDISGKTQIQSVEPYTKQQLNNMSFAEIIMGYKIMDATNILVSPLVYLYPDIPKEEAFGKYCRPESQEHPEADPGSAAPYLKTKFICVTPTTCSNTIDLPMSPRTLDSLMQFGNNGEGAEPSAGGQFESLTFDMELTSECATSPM
UniProt P04792, whole entry: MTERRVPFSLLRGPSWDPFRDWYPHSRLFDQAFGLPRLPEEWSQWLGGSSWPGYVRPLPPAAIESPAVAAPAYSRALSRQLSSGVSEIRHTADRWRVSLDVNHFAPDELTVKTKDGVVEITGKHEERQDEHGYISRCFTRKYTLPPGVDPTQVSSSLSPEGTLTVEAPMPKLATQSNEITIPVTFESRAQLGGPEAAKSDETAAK
UniProt P05412, whole entry: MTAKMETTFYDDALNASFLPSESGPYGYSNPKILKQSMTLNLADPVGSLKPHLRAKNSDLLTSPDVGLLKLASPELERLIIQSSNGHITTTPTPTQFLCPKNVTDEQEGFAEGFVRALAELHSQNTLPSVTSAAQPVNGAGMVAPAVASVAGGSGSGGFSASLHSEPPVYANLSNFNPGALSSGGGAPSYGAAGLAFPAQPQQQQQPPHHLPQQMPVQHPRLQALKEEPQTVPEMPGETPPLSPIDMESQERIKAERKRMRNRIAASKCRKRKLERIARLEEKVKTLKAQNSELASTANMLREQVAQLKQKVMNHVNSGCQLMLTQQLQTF

Key:
Assay type in all cases: cell-based
[1] = molecular target: Tyrosine-protein kinase Lck (Homo sapiens) (UniProt P06239); test: Effect on LCK at Y394 phosphorylation level in human NCI-H1975 incubated for 12 hrs by human phosphokinase proteome profiler array relative to beta-catenin
[2] = molecular target: c-Jun N-terminal kinase, JNK (Homo sapiens) (UniProt P45983+P53779+P45984); test: Effect on JNK1/2/3 at T183/Y185,T221/Y223 phosphorylation level in human NCI-H1975 incubated for 12 hrs by human phosphokinase proteome profiler array relative to beta-catenin
[3] = molecular target: STAT5A/STAT5B (Homo sapiens) (UniProt P42229+P51692); test: Effect on STAT5a/b at Y694/Y699 phosphorylation level in human NCI-H1975 incubated for 12 hrs by human phosphokinase proteome profiler array relative to control
[4] = molecular target: Proto-oncogene tyrosine-protein kinase Src (Homo sapiens) (UniProt P12931); test: Effect on SRC at Y419 phosphorylation level in human NCI-H1975 incubated for 12 hrs by human phosphokinase proteome profiler array relative to beta-catenin
[5] = molecular target: Cellular tumor antigen p53 (Homo sapiens) (UniProt P04637); test: Effect on p53 at S15 phosphorylation level in human NCI-H1975 incubated for 12 hrs by human phosphokinase proteome profiler array relative to control
[6] = molecular target: Serine/threonine-protein kinase mTOR (Homo sapiens) (UniProt P42345); test: Effect on mTOR at S2448 phosphorylation level in human NCI-H1975 incubated for 12 hrs by human phosphokinase proteome profiler array relative to beta-catenin
[7] = molecular target: Signal transducer and activator of transcription 2 (Homo sapiens) (UniProt P52630); test: Effect on STAT2 at Y689 phosphorylation level in human NCI-H1975 incubated for 12 hrs by human phosphokinase proteome profiler array relative to beta-catenin
[8] = molecular target: T1, Signal transducer and activator of transcription 6 (Homo sapiens) (UniProt P42226); test: Effect on STAT6 at Y641 phosphorylation level in human NCI-H1975 incubated for 12 hrs by human phosphokinase proteome profiler array relative to control
T1 sequence (whole entry): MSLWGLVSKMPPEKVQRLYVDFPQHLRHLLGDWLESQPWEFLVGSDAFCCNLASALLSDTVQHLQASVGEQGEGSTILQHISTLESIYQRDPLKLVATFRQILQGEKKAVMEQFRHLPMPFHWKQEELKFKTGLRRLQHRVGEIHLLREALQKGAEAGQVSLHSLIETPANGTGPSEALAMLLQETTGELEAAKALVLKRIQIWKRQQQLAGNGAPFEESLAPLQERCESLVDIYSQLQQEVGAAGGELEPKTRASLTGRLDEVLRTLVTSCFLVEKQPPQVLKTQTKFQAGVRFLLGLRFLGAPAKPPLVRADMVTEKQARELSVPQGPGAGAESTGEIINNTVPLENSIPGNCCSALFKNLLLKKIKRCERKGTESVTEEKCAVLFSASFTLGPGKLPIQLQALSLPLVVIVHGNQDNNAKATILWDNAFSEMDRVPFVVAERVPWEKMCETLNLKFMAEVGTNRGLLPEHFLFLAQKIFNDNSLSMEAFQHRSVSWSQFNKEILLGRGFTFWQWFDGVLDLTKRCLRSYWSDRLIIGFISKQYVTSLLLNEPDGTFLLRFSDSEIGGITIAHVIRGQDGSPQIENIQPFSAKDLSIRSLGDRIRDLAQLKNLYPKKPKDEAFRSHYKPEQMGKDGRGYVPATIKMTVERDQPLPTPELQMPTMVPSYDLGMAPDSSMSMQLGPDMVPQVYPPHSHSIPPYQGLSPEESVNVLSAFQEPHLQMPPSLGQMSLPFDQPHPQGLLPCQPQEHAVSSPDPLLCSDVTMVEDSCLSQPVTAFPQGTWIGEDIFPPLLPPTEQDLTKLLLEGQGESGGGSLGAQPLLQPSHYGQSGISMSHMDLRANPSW

[9] = molecular target: RPS6KA1/RPS6KA2/RPS6KA3 (Homo sapiens) (UniProt P51812+Q15349+Q15418); test: Effect on RSK1/2/3 at S380/S386/S377 phosphorylation level in human NCI-H1975 incubated for 12 hrs by human phosphokinase proteome profiler array relative to control
[10] = molecular target: T2, Serine/threonine-protein kinase AKT (Homo sapiens) (UniProt P31751+Q9Y243+P31749); test: Effect on Akt1/2/3 at T308 phosphorylation level in human NCI-H1975 incubated for 12 hrs by human phosphokinase proteome profiler array relative to beta-catenin
[11] = molecular target: Signal transducer and activator of transcription 2 (Homo sapiens) (UniProt P52630); test: Effect on STAT2 at Y689 phosphorylation level in human NCI-H1975 incubated for 12 hrs by human phosphokinase proteome profiler array relative to control
[12] = molecular target: 5'-AMP-activated protein kinase catalytic subunit alpha-1 (Homo sapiens) (UniProt Q13131); test: Effect on AMPK alpha1 at T183 phosphorylation level in human NCI-H1975 incubated for 12 hrs by human phosphokinase proteome profiler array relative to beta-catenin
[13] = molecular target: Mitogen-activated protein kinase 14 (Homo sapiens) (UniProt Q16539); test: Effect on p38alpha at T180/Y182 phosphorylation level in human NCI-H1975 incubated for 12 hrs by human phosphokinase proteome profiler array relative to beta-catenin
[14] = molecular target: 5'-AMP-activated protein kinase catalytic subunit alpha-1 (Homo sapiens) (UniProt Q13131); test: Effect on AMPK alpha1 at T183 phosphorylation level in human NCI-H1975 incubated for 12 hrs by human phosphokinase proteome profiler array relative to control
[15] = molecular target: Focal adhesion kinase 1 (Homo sapiens) (UniProt Q05397); test: Effect on FAK at Y397 phosphorylation level in human NCI-H1975 incubated for 12 hrs by human phosphokinase proteome profiler array relative to beta-catenin
[16] = molecular target: Tyrosine-protein kinase Fgr (Homo sapiens) (UniProt P09769); test: Effect on FGR at Y412 phosphorylation level in human NCI-H1975 incubated for 12 hrs by human phosphokinase proteome profiler array relative to beta-catenin
[17] = molecular target: Cyclin-dependent kinase inhibitor 1B (Homo sapiens) (UniProt P46527); test: Effect on p27 at T198 phosphorylation level in human NCI-H1975 incubated for 12 hrs by human phosphokinase proteome profiler array relative to control
[18] = molecular target: Signal transducer and activator of transcription 3 (Homo sapiens) (UniProt P40763); test: Effect on STAT3 at Y705 phosphorylation level in human NCI-H1975 incubated for 12 hrs by human phosphokinase proteome profiler array relative to beta-catenin
[19] = molecular target: Heat shock protein beta-1 (Homo sapiens) (UniProt P04792); test: Effect on HSP27 at S78/S82 phosphorylation level in human NCI-H1975 incubated for 12 hrs by human phosphokinase proteome profiler array relative to control
[20] = molecular target: Transcription factor Jun (Homo sapiens) (UniProt P05412); test: Effect on c-Jun phosphorylation at S63 residue in human NCI-H1975 cells incubated for 12 hrs by human phosphokinase proteome profiler array relative to control
[21] = molecular target: T2, Serine/threonine-protein kinase AKT (Homo sapiens); test: Effect on Akt1/2/3 at S473 phosphorylation level in human NCI-H1975 incubated for 12 hrs by human phosphokinase proteome profiler array relative to control

CCOc1ccc(-c2nc(/C(N)=N/O)c3[nH]c(=O)n(-c4ccccc4OC)c3n2)cc1
fold change (FC) [1]: 0.78 | fold change (FC) [2]: 0.87 | fold change (FC) [3]: 0.83 | fold change (FC) [4]: 0.75 | fold change (FC) [5]: 1.36 | fold change (FC) [6]: 1.01 | fold change (FC) [7]: 0.88 | fold change (FC) [8]: 0.84 | fold change (FC) [9]: 1.55 | fold change (FC) [10]: 1.46 | fold change (FC) [11]: 0.76 | fold change (FC) [12]: 1.04 | fold change (FC) [13]: 1.21 | fold change (FC) [14]: 0.89 | fold change (FC) [15]: 1.04 | fold change (FC) [16]: 1.18 | fold change (FC) [17]: 1.65 | fold change (FC) [18]: 1.73 | fold change (FC) [19]: 0.77 | fold change (FC) [20]: 1.49 | fold change (FC) [21]: 0.67

CCOc1ccc(-c2nc(C(=O)NO)c3[nH]c(=O)n(-c4ccccc4OC)c3n2)cc1
fold change (FC) [1]: 0.73 | fold change (FC) [2]: 0.92 | fold change (FC) [3]: 0.83 | fold change (FC) [4]: 0.68 | fold change (FC) [5]: 0.83 | fold change (FC) [6]: 0.82 | fold change (FC) [7]: 1.15 | fold change (FC) [8]: 1.2 | fold change (FC) [9]: 1.05 | fold change (FC) [10]: 0.98 | fold change (FC) [11]: 1.02 | fold change (FC) [12]: 1.03 | fold change (FC) [13]: 0.92 | fold change (FC) [14]: 0.92 | fold change (FC) [15]: 1.01 | fold change (FC) [16]: 0.36 | fold change (FC) [17]: 1.75 | fold change (FC) [18]: 1.28 | fold change (FC) [19]: 0.75 | fold change (FC) [20]: 1.17 | fold change (FC) [21]: 0.55
